Laboratory results: PMC4686915, “An engineered scorpion toxin analogue with improved Kv1.3 selectivity displays reduced conformational flexibility” (Scientific Reports, 2015)
“Also recorded” adds a separate entry of the source.

The chains behind the UniProt entries cited, without tags or fusion partners.
UniProt P22001, whole entry: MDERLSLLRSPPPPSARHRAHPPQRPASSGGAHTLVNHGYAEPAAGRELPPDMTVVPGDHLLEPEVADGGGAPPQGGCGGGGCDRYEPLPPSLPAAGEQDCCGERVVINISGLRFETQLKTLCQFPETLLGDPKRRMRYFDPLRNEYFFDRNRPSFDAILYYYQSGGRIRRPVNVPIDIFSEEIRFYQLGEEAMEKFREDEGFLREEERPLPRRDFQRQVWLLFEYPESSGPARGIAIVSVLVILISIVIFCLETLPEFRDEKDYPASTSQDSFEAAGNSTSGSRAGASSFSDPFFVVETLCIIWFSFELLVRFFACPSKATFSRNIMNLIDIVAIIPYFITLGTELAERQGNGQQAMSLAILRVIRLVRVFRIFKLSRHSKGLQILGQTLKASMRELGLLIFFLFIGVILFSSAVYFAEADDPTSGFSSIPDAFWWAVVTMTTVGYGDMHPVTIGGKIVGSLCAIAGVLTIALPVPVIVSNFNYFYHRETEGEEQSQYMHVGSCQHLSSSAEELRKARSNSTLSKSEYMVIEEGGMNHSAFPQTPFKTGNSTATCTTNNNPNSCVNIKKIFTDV
UniProt P16389, whole entry: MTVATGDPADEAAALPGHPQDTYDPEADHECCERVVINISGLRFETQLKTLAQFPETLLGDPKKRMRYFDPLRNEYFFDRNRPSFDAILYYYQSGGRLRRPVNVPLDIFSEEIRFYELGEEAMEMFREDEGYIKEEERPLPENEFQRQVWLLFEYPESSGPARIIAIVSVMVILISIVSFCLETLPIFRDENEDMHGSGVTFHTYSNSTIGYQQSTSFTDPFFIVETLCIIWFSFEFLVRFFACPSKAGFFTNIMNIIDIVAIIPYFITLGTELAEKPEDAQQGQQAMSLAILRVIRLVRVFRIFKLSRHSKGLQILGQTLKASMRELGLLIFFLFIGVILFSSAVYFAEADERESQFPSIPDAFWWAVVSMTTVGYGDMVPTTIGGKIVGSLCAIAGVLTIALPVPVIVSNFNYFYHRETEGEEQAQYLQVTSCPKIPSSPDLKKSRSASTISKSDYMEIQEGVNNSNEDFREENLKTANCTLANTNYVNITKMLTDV

Columns and labels:
Format in all cases: cell-based
hKv1.3 = target: T1, hKv1.3 (Homo sapiens, UniProt P22001); experiment: Patch-clamp block of Kv1.3 currents in activated human lymphocytes; details: for Hill coefficient H, Kv1.3: Hill fit of dose-response on Kv1.3; for affinity and selectivity for Kv1.3, in words: patch-clamp, vs Kv1.2 and other channels
T1 construct: endogenous in cells

hKv1.2 = target: T2, hKv1.2 (Homo sapiens, UniProt P16389); experiment: Patch-clamp block of Kv1.2 currents in transfected CHO cells; details: for block of Kv1.2 current, in words: 100 nM toxin; for Hill coefficient H, Kv1.2: Hill fit of dose-response on Kv1.2
T2 construct: expressed in transfected cells; host or cells: CHO cells, transient transfection (Lipofectamine 2000), GFP plasmid co-transfected 10:1

Kv1.3 [1] = target: T3, Kv1.3 (Homo sapiens, UniProt P22001); experiment: Wash-out kinetics of Kv1.3 current block; parameters: endogenous in cells; details: for TOFF, wash-out time constant: Kv1.3, human lymphocytes, +50 mV pulses from −100 mV every 15 s, single exponential fit, mean ±SEM, n = 3 sAnTx, 4 N17A, 6 [F32T]-AnTx, 6 [N17A/F32T]-AnTx, 1 nM sAnTx, 3 nM variants; for dissociation from Kv1.3, in words: wash-out time constants
mKv1.1 = experiment: Patch-clamp block of mKv1.1 currents in L929 cells; details: 100 nM toxin, whole-cell, +50 mV
Protocol: (§1) mKv1.1 currents were measured on L929 cells stably expressing the channel. Cells were cultured as described earlier. CHO cells were transiently transfected with pcDNA3 vector containing the hKv1.2 gene or with pEGFP-C1 vector coding the KCa3.1 gene[10] using Lipofectamine 2000 (Invitrogen) reagent according to the manufacturer’s protocol. In case of Kv1.2 the pcDNA3 vector was co-transfected with the plasmid coding GFP in a ratio of 10:1 (channel plasmid:GFP). GFP-positive transfectants were identified with a Nikon TE2000U fluorescence microscope (Nikon, Tokyo, Japan) and were used for current recordings.
(§2) Solutions for whole-cell and outside-out patch-clamp measurements contained in mM: (bath: 145 NaCl, 5 KCl, 1 MgCl2, 2.5 CaCl2, 5.5 glucose, 10 HEPES, 0.1 mg/ml BSA, pH 7.35) and (pipette-filling solution for Kv channels: 140 KF, 2 MgCl2, 1 CaCl2, 10 HEPES, 11 EGTA, pH 7.22; for KCa3.1 channels: 150 K-aspartate, 5 HEPES, 10 EGTA, 8.7 CaCl2, 2 MgCl2, pH 7.22). Pipettes had 3-5-MΩ resistance in the bath. Series resistance compensation up to 85% was used.
(§3) The remaining current fraction at a given toxin concentration is RF=I/I0, where I and I0 are current amplitudes in the presence and absence of the toxin, respectively. […]
(§4) A. Kv1.1 currents were measured in an L929 cell stably expressing the mKv1.1 channel. […]
(§5) currents were measured in a CHO cell transiently transfected with the KCa3.1 gene. […]

hKCa3.1 = experiment: Patch-clamp block of KCa3.1 currents in transfected CHO cells; details: 100 nM toxin, whole-cell, voltage ramps -100 to +50 mV
Protocol: as §1, §2, §3, §4, §5

Kv1.3 [2] = target: T3, Kv1.3; experiment: Association rate (wash-in kinetics) to Kv1.3; parameters: endogenous in cells; host or cells: human lymphocytes (inferred); details: for kon: calculated from TON and TOFF cell by cell, low concentrations for wash-in, unit meant 10^7 M-1s-1
Source text: Supplementary Figure S5. Association rates of sAnTx and [N17A/F32T]-AnTx to Kv1.3 […]
Normalized current amplitudes are plotted as a function of time during the development of block […]
and recovery from block by the toxins. Depolarizing pulses were applied every 15 s. Data points […]
were fit with single exponential functions and TON (wash-in) and TOFF (wash-out) time constants […]
were used to calculate kON values. […]
kON values characterizing the association rate were obtained from toxin wash-in kinetics at lower […]
concentrations (at high concentrations block developed too quickly to be reliably fit) and wash-out […]
kinetics (following high concentration block) on a cell-by-cell basis to exclude perfusion system […]
positioning effects. kON was calculated as: […]
k = 1 − TON × kOFF , k = 1
(also on this page, place not known: De polarizing T T OFF cell -by-cell kON kOFF ON Wash-in Time (s) 0 50 100 Relative amplitude 0.0 0.5 1.0 sAnTx (1 nM) N17/F32T (1 nM) Wash-out Time (s) 0 50 100 150) […]
(1 picture or pasted object on this page, not shown here)

[3] = perfusion with toxin-free solution

SMILES	Hill coefficient H, Kv1.3 (hKv1.3)	affinity and selectivity for Kv1.3, in words (hKv1.3)	affinity and selectivity for Kv1.3, in words (hKv1.3; listed as F32T)	reduction of affinity for Kv1.3 compared to sAnTx (hKv1.3; ratio of Kd values vs sAnTx)	block of Kv1.2 current, in words (hKv1.2)	estimated increase in Kd for Kv1.2 (hKv1.2; estimated from block at 100 nM, vs sAnTx)	affinity for Kv1.2, in words (hKv1.2; patch-clamp)	TOFF, wash-out time constant (Kv1.3 [1]) [s]	dissociation from Kv1.3, in words (Kv1.3 [1])	Kd (hKv1.3; whole-cell/outside-out patch-clamp, activated human lymphocytes, 15-ms pulses to +50 mV every 15 s, pH 7.35 bath, 2-parameter Hill fit) [nM]	Hill coefficient H, Kv1.2 (hKv1.2)	effect on Kv1.1 current, in words (mKv1.1)	effect on KCa3.1 current, in words (hKCa3.1)	association rate to Kv1.3, in words (Kv1.3 [2]; [N17A/F32T]-AnTx vs sAnTx)	kon (Kv1.3 [2]) [M⁻¹ s⁻¹]	affinity and selectivity for Kv1.3, in words (hKv1.3; listed as N17A)	block of Kv1.3 current, in words (hKv1.3; 0.3 nM sAnTx, equilibrium block)	reversibility of Kv1.3 block (hKv1.3; [3])	reversibility of Kv1.2 block (hKv1.2; [3])
CSCC[C@@H]1NC(=O)[C@@H]2CSSC[C@H](NC(=O)[C@H](CCC(=O)O)NC(=O)[C@H](CCCCN)NC(=O)[C@@H]3CCC(=O)N3)C(=O)N[C@@H]([C@@H](C)O)C(=O)NCC(=O)N3CCC[C@H]3C(=O)N[C@@H](CCC(N)=O)C(=O)N[C@@H](Cc3c[nH]cn3)C(=O)N[C@H]3CSSC[C@H](NC(=O)[C@H](CCCCN)NC(=O)[C@H](CCCNC(=N)N)NC(=O)[C@H](CC(N)=O)NC1=O)C(=O)N[C@@H](CCCCN)C(=O)N[C@H]1CSSC[C@H](NC(=O)[C@H](Cc4ccccc4)NC(=O)[C@H](CC(N)=O)NC(=O)[C@H]([C@@H](C)O)NC3=O)C(=O)N[C@@H](CCCNC(=N)N)C(=O)N[C@@H](CCCCN)C(=O)N[C@@H](CC(N)=O)C(=O)N[C@@H](CCCCN)C(=O)N[C@@H](CSSC[C@@H](C(=O)N[C@@H](CCCCN)C(=O)O)NC(=O)[C@H](CC(N)=O)NC(=O)[C@H]([C@@H](C)O)NC1=O)C(=O)N[C@@H]([C@@H](C)O)C(=O)N[C@@H](Cc1c[nH]cn1)C(=O)NCC(=O)N[C@@H](CCCCN)C(=O)N2 [[F32T]-AnTx]	1	markedly improved toxin selectivity for Kv1.3, but with reduced affinity	its affinity for Kv1.3 also decreased slightly	about 30 fold	very small amount of block was detected	~ 1000 fold	lost the affinity for Kv1.2	26.6 ± 4.1	lower affinity and faster dissociation rate										
CSCC[C@@H]1NC(=O)[C@@H]2CSSC[C@H](NC(=O)[C@H](CCC(=O)O)NC(=O)[C@H](CCCCN)NC(=O)[C@@H]3CCC(=O)N3)C(=O)N[C@@H]([C@@H](C)O)C(=O)NCC(=O)N3CCC[C@H]3C(=O)N[C@@H](CCC(N)=O)C(=O)N[C@@H](Cc3c[nH]cn3)C(=O)N[C@H]3CSSC[C@H](NC(=O)[C@H](CCCCN)NC(=O)[C@H](CCCNC(=N)N)NC(=O)[C@H](CC(N)=O)NC1=O)C(=O)N[C@@H](CCCCN)C(=O)N[C@H]1CSSC[C@H](NC(=O)[C@H](Cc4ccccc4)NC(=O)[C@H](CC(N)=O)NC(=O)[C@H]([C@@H](C)O)NC3=O)C(=O)N[C@@H](CCCNC(=N)N)C(=O)N[C@@H](CCCCN)C(=O)N[C@@H](C)C(=O)N[C@@H](CCCCN)C(=O)N[C@@H](CSSC[C@@H](C(=O)N[C@@H](CCCCN)C(=O)O)NC(=O)[C@H](CC(N)=O)NC(=O)[C@H]([C@@H](C)O)NC1=O)C(=O)N[C@@H]([C@@H](C)O)C(=O)N[C@@H](Cc1c[nH]cn1)C(=O)NCC(=O)N[C@@H](CCCCN)C(=O)N2 [[N17A/F32T]-AnTx]	0.9	high affinity and highly Kv1.3-selective; also recorded: very high affinity and selectivity for Kv1.3 over mKv1.1, hKv1.2, and hKCa3.1 channels			negligible block			19.6 ± 2.83	dissociates from the channel at a much higher rate than the WT	0.6	0.8	ineffective; also recorded: lack of significant blocking potency	ineffective; also recorded: lack of significant blocking potency	faster association rate	4.38e+07				
CSCC[C@@H]1NC(=O)[C@@H]2CSSC[C@H](NC(=O)[C@H](CCC(=O)O)NC(=O)[C@H](CCCCN)NC(=O)[C@@H]3CCC(=O)N3)C(=O)N[C@@H]([C@@H](C)O)C(=O)NCC(=O)N3CCC[C@H]3C(=O)N[C@@H](CCC(N)=O)C(=O)N[C@@H](Cc3c[nH]cn3)C(=O)N[C@H]3CSSC[C@H](NC(=O)[C@H](CCCCN)NC(=O)[C@H](CCCNC(=N)N)NC(=O)[C@H](CC(N)=O)NC1=O)C(=O)N[C@@H](CCCCN)C(=O)N[C@H]1CSSC[C@H](NC(=O)[C@H](Cc4ccccc4)NC(=O)[C@H](CC(N)=O)NC(=O)[C@H]([C@@H](C)O)NC3=O)C(=O)N[C@@H](CCCNC(=N)N)C(=O)N[C@@H](CCCCN)C(=O)N[C@@H](C)C(=O)N[C@@H](CCCCN)C(=O)N[C@@H](CSSC[C@@H](C(=O)N[C@@H](CCCCN)C(=O)O)NC(=O)[C@H](CC(N)=O)NC(=O)[C@H](Cc3ccccc3)NC1=O)C(=O)N[C@@H]([C@@H](C)O)C(=O)N[C@@H](Cc1c[nH]cn1)C(=O)NCC(=O)N[C@@H](CCCCN)C(=O)N2 [[N17A]-AnTx]	0.9	no significant effect alone						45.6 ± 2.0	dissociate from Kv1.3 more slowly		0.8					did not alter selectivity significantly			
CSCC[C@@H]1NC(=O)[C@@H]2CSSC[C@H](NC(=O)[C@H](CCC(=O)O)NC(=O)[C@H](CCCCN)NC(=O)[C@@H]3CCC(=O)N3)C(=O)N[C@@H]([C@@H](C)O)C(=O)NCC(=O)N3CCC[C@H]3C(=O)N[C@@H](CCC(N)=O)C(=O)N[C@@H](Cc3c[nH]cn3)C(=O)N[C@H]3CSSC[C@H](NC(=O)[C@H](CCCCN)NC(=O)[C@H](CCCNC(=N)N)NC(=O)[C@H](CC(N)=O)NC1=O)C(=O)N[C@@H](CCCCN)C(=O)N[C@H]1CSSC[C@H](NC(=O)[C@H](Cc4ccccc4)NC(=O)[C@H](CC(N)=O)NC(=O)[C@H]([C@@H](C)O)NC3=O)C(=O)N[C@@H](CCCNC(=N)N)C(=O)N[C@@H](CCCCN)C(=O)N[C@@H](CC(N)=O)C(=O)N[C@@H](CCCCN)C(=O)N[C@@H](CSSC[C@@H](C(=O)N[C@@H](CCCCN)C(=O)O)NC(=O)[C@H](CC(N)=O)NC(=O)[C@H](Cc3ccccc3)NC1=O)C(=O)N[C@@H]([C@@H](C)O)C(=O)N[C@@H](Cc1c[nH]cn1)C(=O)NCC(=O)N[C@@H](CCCCN)C(=O)N2 [sAnTx]	1.0							52.9 ± 6.1	dissociate from Kv1.3 more slowly		0.8	Neither sAnTx nor the single-substituted analogues caused significant reduction	Neither sAnTx nor the single-substituted analogues caused significant reduction		1.78e+07		significant reduction of the current amplitude	full recovery of the current	reversibly blocked
